The target in experiment [1] is T1, glycocalicin (extramembranous proteolytic fragment of platelet GP1bα) (human (endogenous in platelets), UniProt P07359 17-531).
T1 construct: platelet glycoprotein Ib alpha (GP1bα), human; glycocalicin, the extramembranous proteolytic fragment released from sonicated platelets; In the functional rows this molecule stands for GP1bα on the surface of human platelets; also called extramembranous part of GP1bα; source: purified from outdated human platelets (wheat germ lectin agarose, HiTrap DEAE-FF ion exchange)
The experiment in a line: SPR; BIAcore T200; glycocalicin covalently coupled to C1 sensor chip via aldehyde coupling to 1200 RU; HbS perfused at 30 μL/min; 10 mM HEPES, 150 mM NaCl, 0.05% Tween 20, pH 7.4, 25°C; steady state affinity model. The conditions noted are these: both partners purified. (In general: Surface plasmon resonance follows binding to a sensor surface in real time, without labels.)

Sequences of proteins named here, by UniProt entry; tags and fusion partners are left off. Residues count along the entry.
UniProt P07359, 17-531: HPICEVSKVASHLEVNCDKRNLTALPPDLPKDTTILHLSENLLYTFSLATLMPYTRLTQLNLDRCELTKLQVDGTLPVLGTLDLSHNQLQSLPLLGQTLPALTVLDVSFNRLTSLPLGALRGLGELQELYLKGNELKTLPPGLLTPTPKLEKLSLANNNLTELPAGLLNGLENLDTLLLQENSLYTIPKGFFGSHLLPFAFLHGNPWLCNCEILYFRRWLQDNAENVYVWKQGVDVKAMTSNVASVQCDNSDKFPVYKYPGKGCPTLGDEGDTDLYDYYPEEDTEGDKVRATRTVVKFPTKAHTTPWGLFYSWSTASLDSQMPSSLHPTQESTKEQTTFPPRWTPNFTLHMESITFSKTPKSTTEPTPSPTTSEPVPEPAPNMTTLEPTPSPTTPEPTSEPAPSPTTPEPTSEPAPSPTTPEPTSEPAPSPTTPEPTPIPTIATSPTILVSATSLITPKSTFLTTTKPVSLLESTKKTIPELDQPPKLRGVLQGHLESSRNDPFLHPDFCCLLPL

The target in experiment [2] is T1, glycocalicin (extramembranous …). Nature of the experiment: cell-based or functional assay.

B1: sickle hemoglobin (HbS) (complex)
chain 1: not shown
chain 2: not shown
In general, Kd refers to the concentration at which binding is half-saturated. A low value points to higher affinity. Take B1: the Kd in experiment [1] is around 10.5 µM. Further, in experiment [2], the “HbS-mediated phosphorylation of Akt in washed human platelets with the GP1bα peptide AA1-50 (0.5 μM), fold-change” value turned out to be 1.32 fold-change; the “HbS-mediated phosphorylation of ERK in washed human platelets with the GP1bα peptide AA1-50 (0.5 μM), fold-change” value is 2.17 fold-change; the “HbS-mediated phosphorylation of Lyn in washed human platelets with the GP1bα peptide AA1-50 (0.5 μM), fold-change” value amounted to 1.06 fold-change; the “HbS-mediated phosphorylation of PI3K in washed human platelets with the GP1bα peptide AA1-50 (0.5 μM), fold-change” value was 0.711 fold-change. For the same molecule, in experiment [2], the “phosphorylation of Akt in washed human platelets (immunoblot, phospho/non-phospho, fold-change), HbS 0.37-4.5 μM; maximum at 1.5 μM HbS” value amounted to 2.45 fold-change; the “phosphorylation of ERK in washed human platelets (immunoblot, phospho/non-phospho, fold-change), HbS 0.37-4.5 μM; maximum at 1.12 μM HbS” value amounted to 2.51 fold-change; the “phosphorylation of Lyn in washed human platelets (immunoblot, ratio p-Lyn/Lyn, fold-change), HbS 0.37-4.5 μM; maximum at 1.5 μM HbS” value turned out to be 19.6 fold-change; the “phosphorylation of PI3K in washed human platelets (immunoblot, phospho/non-phospho, fold-change), HbS 0.37-4.5 μM; maximum at 1.12 μM HbS” value was found to be 53.4 fold-change.

(Values after paper PMC5148012, “HbS Binding to GP1bα Activates Platelets in Sickle Cell Disease” (PLoS ONE, 2016).)
